Patent US9271963B2, “Selective inhibitors of human corticosteroid synthases” (UNIVERSITAT DES SAARLANDES, priority 2005, dated 2016)

The chains behind the UniProt entries cited, without tags or fusion partners. Residues count along the entry.
UniProt P15538, 25-503: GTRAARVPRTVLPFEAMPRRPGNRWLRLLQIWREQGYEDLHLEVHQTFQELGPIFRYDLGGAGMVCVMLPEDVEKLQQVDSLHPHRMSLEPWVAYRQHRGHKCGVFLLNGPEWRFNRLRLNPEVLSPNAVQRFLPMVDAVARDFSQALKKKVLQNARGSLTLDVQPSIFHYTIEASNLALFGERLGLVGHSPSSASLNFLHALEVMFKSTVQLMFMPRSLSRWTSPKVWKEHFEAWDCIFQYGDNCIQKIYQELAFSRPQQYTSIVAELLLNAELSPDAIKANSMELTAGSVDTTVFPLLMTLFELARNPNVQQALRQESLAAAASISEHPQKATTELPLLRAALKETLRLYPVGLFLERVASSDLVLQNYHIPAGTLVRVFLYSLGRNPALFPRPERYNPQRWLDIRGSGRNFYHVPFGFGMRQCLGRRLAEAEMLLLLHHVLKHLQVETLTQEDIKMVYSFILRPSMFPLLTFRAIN

Target: CYP11B1 (Homo sapiens (Human), UniProt P15538)
Assay: Inhibition test in V79 MZh11B1 cells (hamster fibroblasts expressing human CYP11B1)
Type: cell-based

## C1=C(n2ccnc2)CCc2ccccc21 [Compound 45, 1-(3,4-Dihydronaphthalene-2-yl)-1H-imidazole]
Table 2, deoxycorticosterone substrate 100 nM, read-out: IC50 value V79 11B1 hCY11B1
  IC50: 638 nM
read-out: IC50 in V79MZh 11B1 cells (CYP11B1 inhibition)
  IC50: 206 to 805 nM

Where two headings read alike, the source gives them in different places.
